Source: paper PMC11765156, “New Brusatol Derivatives as Anti-Settlement Agents Against Barnacles, Targeting HSP90: Design, Synthesis, Biological Evaluation, and Molecular Docking Investigations” (International Journal of Molecular Sciences, 2025)

Test system: Balanus amphitrite
Assay: Anti-settlement assay with barnacle cyprid larvae (settlement inhibition and mortality, 48 h)
Assay type: in vivo
Method: Compounds dissolved in DMSO were sequentially administered to the wells, starting with a concentration of 25 µg/mL and proceeding with serial half-logarithmic dilutions. The volume of the compound in each well was maintained at […], with seawater as the blank control, DMSO as the negative control, and SeaNine 211 serving as the positive control. Utilizing a stereo microscope, a 1 mL micropipette was employed to introduce 995 μL of seawater and between 21 and 25 cyprid larvae into each well of a 24-well plate. Subsequently, the plates were incubated in a darkened, temperature-controlled environment for 48 h. […] This observation facilitated the calculation of mortality and settlement rates of the barnacle cyprids, crucial for assessing the antifouling properties of the compounds. The determination of EC50 values for the inhibition of barnacle larval attachment and LC50 values for larval mortality offered an evaluation of the compounds’ efficacy in deterring barnacle larval adherence and their associated toxicity.

For brusatol [B1, reference compound], the “LC50 (larval mortality)” value (Balanus amphitrite cyprid larvae, 48 h incubation) was 56.1254 ± 5.2154 µg/mL and the LC50/EC50 (Balanus amphitrite, ratio >15 indicating low toxicity) was 20.1701.
